{"source": "PubChem BioAssay AID504615", "about": "(Sanford-Burnham Center for Chemical Genomics, 2011)", "note": "This is a selection; strong and weak results do not stand in their true shares. The source made the active and inactive calls.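 How the source made its calls: active means signal rise of 40% or more at 20 µM, treated as a fluorescence artifact; inactive means the rest.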"}
{"experiment": "Rh110 fluorescence interference by putative Apaf-1 inhibitors, confirmation, artefact control for Apaf-1 inhibitor project, biochemical, 20 µM (AID 504615)", "settings": "quenched caspase reaction, at 20 µM, hits give high values"}
{"smiles": "CCc1nc2c(n1)c1c(non1O)c1c2no[n+]1[O-]", "activation (fluorescence interference)": "inactive: -2.81%"}
